{"sequences": {"note": "Sequences of proteins named here, by UniProt entry; tags and fusion partners are left off.", "UniProt P05107, whole entry, looked up": "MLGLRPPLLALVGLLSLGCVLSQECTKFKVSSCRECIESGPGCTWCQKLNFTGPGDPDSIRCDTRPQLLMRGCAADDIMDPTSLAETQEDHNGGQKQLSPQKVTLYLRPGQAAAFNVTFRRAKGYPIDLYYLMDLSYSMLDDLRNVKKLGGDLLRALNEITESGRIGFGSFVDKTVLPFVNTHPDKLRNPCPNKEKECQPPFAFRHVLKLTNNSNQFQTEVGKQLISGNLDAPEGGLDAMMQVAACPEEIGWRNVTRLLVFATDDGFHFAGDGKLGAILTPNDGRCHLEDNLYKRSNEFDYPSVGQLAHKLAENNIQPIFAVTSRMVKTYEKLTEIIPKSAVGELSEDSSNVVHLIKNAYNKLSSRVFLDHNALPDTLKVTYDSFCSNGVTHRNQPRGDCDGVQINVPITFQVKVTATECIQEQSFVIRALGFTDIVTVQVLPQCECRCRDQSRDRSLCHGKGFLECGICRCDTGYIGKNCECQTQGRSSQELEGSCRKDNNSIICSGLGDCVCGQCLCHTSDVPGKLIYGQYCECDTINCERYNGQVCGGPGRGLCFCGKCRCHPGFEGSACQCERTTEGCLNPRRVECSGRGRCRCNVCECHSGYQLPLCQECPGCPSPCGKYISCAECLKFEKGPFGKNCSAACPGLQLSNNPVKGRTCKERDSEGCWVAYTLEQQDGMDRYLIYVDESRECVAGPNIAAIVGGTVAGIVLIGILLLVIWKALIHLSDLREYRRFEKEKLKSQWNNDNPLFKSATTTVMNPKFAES"}, "source": "PubChem BioAssay AID1499", "about": "(Sanford-Burnham Center for Chemical Genomics, 2009)", "note": "This is a selection; strong and weak results do not stand in their true shares. Activity calls are given as the source filed them.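 How the source made its calls: active means 10 µM primary screen giving 50% or more activity, confirmed by 40% or more on retest at that dose; inactive means the rest.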", "data": [{"target": "Integrin beta-2 (Homo sapiens) + Integrin alpha-M (Homo sapiens) (UniProt P05107+P11215)", "assay": "agonists of integrin CD11b/CD18-fibrinogen binding – K562 cells, luminescence, primary screen (AID 1499)", "settings": "K562 CD11b/CD18 adhesion to fibrinogen, ATPlite luminescence; at 10 µM; stronger effect = higher value", "values": [{"smiles": "Oc1ccccc1CNc1ccccn1", "activation": "inactive: -1.4%"}, {"smiles": "Cc1c2non([O-])c-2c(C)[n+](=O)[n+]1[O-]", "activation": "inactive: -4.2%"}, {"smiles": "CCN(N=Nc1nonc1N)c1nonc1N", "activation": "inactive: 3%"}, {"smiles": "CCOP(=O)(Nc1ccccc1)OCC", "activation": "inactive: -4.4%"}, {"smiles": "Cc1cc(SC(NC(=O)c2ccc(F)cc2)C(Cl)(Cl)Cl)ncn1", "note": "(centres undefined)", "activation": "inactive: 4.7%"}, {"smiles": "O=[N+]([O-])c1cccc2n[nH]nc12", "activation": "inactive: -3.9%"}, {"smiles": "CCc1nc2c(n1)c1c(non1O)c1c2no[n+]1[O-]", "activation": "inactive: 6.7%"}, {"smiles": "CC(C)C(=O)NC(Sc1ccccc1)C(Cl)(Cl)Cl", "note": "(centres undefined)", "activation": "inactive: 1.9%"}, {"smiles": "O=P(Nc1nccs1)(c1ccccc1)c1ccccc1", "activation": "inactive: -0.1%"}, {"smiles": "c1nnnn1CCn1cnnn1", "activation": "inactive: 0.6%"}, {"smiles": "O=C(OC1CN2CCC1CC2)c1cccc(Cl)c1", "note": "(centres undefined)", "activation": "inactive: -2.8%"}, {"smiles": "O=P1(Nc2nc3ccc(Cl)cc3s2)COc2ccccc2O1", "note": "(centres undefined)", "activation": "inactive: 0.3%"}, {"smiles": "Cc1ccc(NCCc2c([N+](=O)[O-])cc([N+](=O)[O-])cc2[N+](=O)[O-])cc1", "activation": "inactive: -0.3%"}, {"smiles": "Cc1cccc(OCC(=O)OC2CN3CCC2CC3)c1", "note": "(centres undefined)", "activation": "inactive: -4.3%"}, {"smiles": "O=[N+]([O-])c1ccc2c(c1)nnn2O", "activation": "inactive: -3.8%"}, {"smiles": "CCOP1(=S)c2c(C)nn(CCC#N)c2N=C(c2ccc(F)cc2)N1C", "note": "(centres undefined)", "activation": "inactive: -4.9%"}, {"smiles": "O=P1(Nc2ncccn2)COc2ccccc2OC1", "activation": "inactive: 2.9%"}, {"smiles": "O=P1(Nc2ccc(Br)cn2)COc2ccccc2OC1", "activation": "inactive: -4.3%"}, {"smiles": "Cc1ccc(OCC(=O)OC2CN3CCC2CC3)cc1", "note": "(centres undefined)", "activation": "inactive: -1.5%"}, {"smiles": "Cc1nn(-c2ccccc2)c2c1P(=O)(N1CCOCC1)N(C)C(c1ccccc1)=N2", "note": "(centres undefined)", "activation": "inactive: 12.2%"}, {"smiles": "O=P1(Nc2ccccn2)COc2ccccc2OC1", "activation": "inactive: 6.2%"}, {"smiles": "Clc1n[nH]nc1-c1nn[nH][15n]1", "activation": "inactive: -5.1%"}, {"smiles": "COP1(=S)c2c(C)nn(CCC#N)c2N=C(c2ccc(F)cc2)N1C", "note": "(centres undefined)", "activation": "inactive: 3.9%"}, {"smiles": "O=C(COc1ccccc1)OC1CN2CCC1CC2", "note": "(centres undefined)", "activation": "inactive: 1.4%"}, {"smiles": "Cc1cc(SC(NC(=O)c2ccccc2)C(Cl)(Cl)Cl)nc(C(C)C)n1", "note": "(centres undefined)", "activation": "inactive: -3%"}, {"smiles": "CCN(CC)C(=S)SC(NC=O)C(Cl)(Cl)Cl", "note": "(centres undefined)", "activation": "inactive: 0.3%"}, {"smiles": "Cc1ccc2nc3c(c(C)c2c1)CC(C(Cl)Cl)S3", "note": "(centres undefined)", "activation": "inactive: -0.2%"}, {"smiles": "O=C(OC1CN2CCC1CC2)C12CC3CC(CC(C3)C1)C2", "note": "(centres undefined)", "activation": "inactive: 0.3%"}, {"smiles": "Cc1c2c(nc3ccccc13)SC(C(Cl)Cl)C2", "note": "(centres undefined)", "activation": "inactive: 6.5%"}]}]}
